Read-outs that look alike come from different tables or passages of the source.
Molecular target: BTK, recombinant human catalytic domain (aa 393-659) (Homo sapiens (Human), UniProt Q06187)
Assay: In vitro BTK kinase activity measured by time-resolved fluorescence resonance energy transfer (trFRET)
Format: biochemical
Conditions: read-out: Btk IC50

Sequences of proteins named here, by UniProt entry; tags and fusion partners are left off. Residues count along the entry.
UniProt Q06187, 393-659 limits assumed: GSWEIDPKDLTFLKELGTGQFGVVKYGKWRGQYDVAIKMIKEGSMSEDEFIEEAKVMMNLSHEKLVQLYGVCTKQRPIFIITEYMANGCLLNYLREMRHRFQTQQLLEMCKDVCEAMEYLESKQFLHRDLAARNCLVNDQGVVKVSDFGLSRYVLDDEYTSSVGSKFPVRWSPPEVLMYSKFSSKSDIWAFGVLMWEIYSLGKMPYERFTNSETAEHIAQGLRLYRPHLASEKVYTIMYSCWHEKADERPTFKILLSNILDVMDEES

| Structure (SMILES) | IC50 [nM] | IC50 (trFRET, 0.001 mM ATP, biotin-TYR1 peptide substrate) [nM] |
| --- | --- | --- |
| Cc1c(NC(=O)[C@H]2CC[C@](O)(C(F)(F)F)CC2)cccc1-c1ccc(C(N)=O)c2[nH]c(C3=CCN(S(C)(=O)=O)CC3)cc12 | < 100 |  |
| C=CC(=O)Nc1cccc(-c2ccc(C(N)=O)c3[nH]c(-c4ccc(C(=O)N5CCOCC5)cc4)cc23)c1C |  | < 100 |

Source: patent publication US9567339B2, “Primary carboxamides as BTK inhibitors” (AbbVie Inc., priority 2013, dated 2017)
